# Apparent affinities of Ab-14 variants for a coronavirus HR2 peptide

Target: peptide PDVDLGDISGINAS, taken from heptad repeat 2 (HR2) of SARS-CoV-2 spike.

The variants keep the heavy chain, the linker and the frameworks of Ab-14 (scFv order VH, a 15-residue (Gly4Ser)3 linker, VL).
VH: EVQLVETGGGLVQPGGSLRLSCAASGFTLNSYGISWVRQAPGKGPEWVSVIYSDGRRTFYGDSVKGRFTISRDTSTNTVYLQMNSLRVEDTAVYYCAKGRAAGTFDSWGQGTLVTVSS
VL: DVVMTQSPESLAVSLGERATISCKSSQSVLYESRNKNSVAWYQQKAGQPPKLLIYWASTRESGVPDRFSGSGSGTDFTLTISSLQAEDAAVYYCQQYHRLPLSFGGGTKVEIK

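Phage display of a naive human antibody library on the peptide gave the parent. Variants in AAYL50 differ from the parent at up to three CDR positions; double and triple changes were sampled at random. The scFvs were displayed on barcoded MATa yeast, the peptide on MATalpha yeast. Pairs that bind mate more often; barcode pairs of the diploids are counted by sequencing. Scores were corrected for input abundance and mapped to Kd with protein pairs of known affinity run in the same pool. There are three technical replicates.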

Variants are written as CDR1, CDR2 and CDR3 of the light chain (limits as in the source). Parent: KSSQSVLYESRNKNSVA, WASTRES, QQYHRLPLS.
Numbers give log10(Kd / nM), so 0 is 1 nM and 3 is 1 µM. Smaller is tighter.
Replicates are averaged; those with no signal do not enter the mean.
A pair that was not seen in that replicate is written "nd"; this usually means weak binding, but a binder can also be missed.
In this assay the parent's reference entry averaged 0.65; its copy inside this library read 1.68.
Empty control strains, which show no peptide, gave a signal in 18% of pairings with library AAYL50; the median was 4.19 and 95% of these signals were weaker than 2.99. No background was subtracted. The control count says in how many pairings with the empty strains this scFv gave a signal, with their mean in brackets.

CDR-L1 | CDR-L2 | CDR-L3 | log10 Kd (nM) by replicate | mean log10 Kd (nM) | empty controls
KSSQSVLYESTNKNSVA | WAFTRES | QQYHRMPLS | 2.65 2.83 2.77 | 2.75 | 2 of 9 (3.74)
FSSQSVLYESRNKNSQA | WASTRES | QQYHRLPRS | nd 5.01 4.92 | 4.96 | 1 of 9 (4.01)
KSSQSVLYESRNKNSVA | WASTRES | QQQHRLPLN | nd nd nd | nd | 2 of 9 (3.62)
KSSQSVLYESRNKNSVA | WASTRES | QQGHRMPLS | nd nd nd | nd | 2 of 9 (3.95)
ASSQSVLYESRNKNSVA | WASTRES | QQYHRLALS | nd nd nd | nd | 3 of 9 (4.16)
KSSDSVLYESRNKNSVA | WASTREF | QQYHQLPLS | nd nd nd | nd | 0 of 9
KSMQSVLYESRAKNSVA | WASTRES | QQYHRLKLS | 1.86 nd 2.53 | 2.19 | 0 of 9
KSSQSVLYEWRNKNSVA | WASTRES | QQYDRLPLS | 1.04 1.25 1.22 | 1.17 | 4 of 9 (4.46)
KSSQSVLYESRNKNSVA | WASCRCQ | QQYHRLPLS | 1.09 1.22 0.96 | 1.09 | 0 of 9
KSSQSVLYESHNKNSVA | WASTRES | QAGHRLPLS | 0.51 0.75 0.66 | 0.64 | 3 of 9 (4.25)
KSSQSVLYESRNKKSVA | YASTRES | QQYHRLELS | nd 3.65 nd | 3.65 | 0 of 9
KSSQSVLYESRNKNSVG | WASTREY | QQYHRMPLS | nd nd nd | nd | 2 of 9 (3.29)
KKSQSVLYESRNKNSVA | WASGRES | QQYHRLKLS | nd nd nd | nd | 1 of 9 (2.08)
WMSQSVLYESRNKNSVA | TASTRES | QQYHRLPLS | 3.15 nd nd | 3.15 | 1 of 9 (4.37)
KSSQTVSYESRNKNSVA | WASTRES | KQYHRLPLS | nd nd nd | nd | 1 of 9 (2.91)
KSSQSVLWESRNKNPVA | QASTRES | QQYHRLPLS | 0.09 0.38 0.15 | 0.21 | 1 of 9 (2.97)
KSSQSMLYESRNKASVA | WASTRES | GQYHRLPLS | 1.37 1.34 1.58 | 1.43 | 2 of 9 (4.43)
KSSQSVLYESRNKNSVP | WAMTRYS | QQYHRLPLS | nd nd nd | nd | 0 of 9
KKSQSVLYESRNSNSVA | WASTRES | QQYHRLPLS | nd nd 5.76 | 5.76 | 1 of 9 (4.37)
KSSDSVLYESRNKNSVA | WASTSEP | QQYHRLPLS | 2.81 3.08 2.85 | 2.91 | 1 of 9 (5.94)
KSSHSVLYESRNKNSVA | WASTEES | QQYNRLPLS | nd nd nd | nd | 0 of 9
KNSQSVLYESRTKVSVA | WASTRES | QQYHRLPLS | nd nd nd | nd | 0 of 9
KSSQSVLYESRNKNSVQ | WAPTRES | QEYHRLPLS | 4.62 nd nd | 4.62 | 1 of 9 (4.74)
KSSQSVLVESRNKNSVA | WASTLES | QQYHRLPLS | nd 3.93 nd | 3.93 | 0 of 9
KSSQSVLYESCNKNSVA | WASTRES | QQMHRLVLS | nd nd nd | nd | 0 of 9
KSSQMVLYESRNKNSVA | WAWTRES | QTYHRLPLS | nd nd nd | nd | 0 of 9
KSSQSVLRESRNKNSVG | WASTRES | QSYHRLPLS | nd nd nd | nd | 0 of 9
KSSQSVLYESRNKNSDA | WASTRES | QFYHKLPLS | nd nd nd | nd | 0 of 9
KSSQDVLYESRNKNSWA | WAKTRES | QQYHRLPLS | nd nd nd | nd | 0 of 9
KSSQSVLYESRNKNSVE | WASTHLS | QQYHRLPLS | 3.99 nd nd | 3.99 | 4 of 9 (4.54)

Repeated from above, the 3 best binders with a signal in all replicates:

CDR-L1 | CDR-L2 | CDR-L3 | log10 Kd (nM) by replicate | mean log10 Kd (nM) | empty controls
KSSQSVLWESRNKNPVA | QASTRES | QQYHRLPLS | 0.09 0.38 0.15 | 0.21 | 1 of 9 (2.97)
KSSQSVLYESHNKNSVA | WASTRES | QAGHRLPLS | 0.51 0.75 0.66 | 0.64 | 3 of 9 (4.25)
KSSQSVLYESRNKNSVA | WASCRCQ | QQYHRLPLS | 1.09 1.22 0.96 | 1.09 | 0 of 9

Values reported by Engelhart et al. 2022, doi:10.1038/s41597-022-01779-4 (FLAb copy).